AlphaSeq binding of Ab-14 light chain variants to a spike HR2 peptide

From the AlphaSeq antibody data of Li et al. 2023 (doi:10.1038/s41467-023-39022-2), copy in the FLAb collection.

Antigen: PDVDLGDISGINAS, a 14-residue peptide of the SARS-CoV-2 spike HR2 region.

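Phage display of a naive human antibody library on the peptide gave the parent. This is the validation round: designs drawn from the data on random variants, tested in the same kind of assay. Their group label is 14L_GP_Gibbs (GP: Gaussian process model; Gibbs: Gibbs sampling; a sequence that several methods proposed may carry one label only). AlphaSeq pools MATa yeast showing the antibodies with MATalpha yeast showing the peptide. Binding brings cells together so that they mate, and sequencing counts the barcode pairs among the diploids. Scores were corrected for input abundance and mapped to Kd with protein pairs of known affinity run in the same pool. Mating was done six times.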

Ab-14 is the parent antibody, in scFv form: VH, then a (GGGGS)3 linker, then VL. The heavy chain is unchanged in all variants.
VH: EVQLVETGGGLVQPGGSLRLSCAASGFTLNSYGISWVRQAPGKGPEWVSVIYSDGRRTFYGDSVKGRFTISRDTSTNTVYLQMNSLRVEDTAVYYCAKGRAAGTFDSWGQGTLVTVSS
VL: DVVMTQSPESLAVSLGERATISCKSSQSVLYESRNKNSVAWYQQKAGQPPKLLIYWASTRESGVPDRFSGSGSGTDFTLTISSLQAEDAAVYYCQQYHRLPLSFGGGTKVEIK

Each variant is given by its three light chain CDRs, as the data file delimits them; those of the parent are KSSQSVLYESRNKNSVA, WASTRES, QQYHRLPLS. Scale: log10 of Kd in nM, estimated from mating counts; low values are strong binders. A pair that was not seen in that replicate is written "n.d."; this usually means weak binding, but a binder can also be missed. The parent sequence was in this pool as ten entries: three were never detected, three once, and four in most replicates, with averages from 0.34 to 2.37. As a blank, each scFv also met three strains without target: over all light chain designs, 4% of these pairings were detected, typically at 2.64 and seldom below 1.59. The control count says in how many pairings with the empty strains this scFv gave a signal, with their mean in brackets. The authors' rule: three or more of the six replicates give a measured affinity, fewer mean a poor binder. A sequence measured in both rounds can read differently, since the two assays cover different ranges.

CDR-L1	CDR-L2	CDR-L3	log10 Kd, replicates	empty controls
KVEQGVMMGSRNKNSVA	HASVREQ	QQYHRLPLS	0.50 / 0.39 / 0.30 / 0.14 / 0.30 / 0.50	2 of 18 (3.12)
KVSWLHPYWSRNKNSVA	EASTREQ	QQYHRLPLS	0.69 / 0.45 / 0.52 / 0.30 / 0.64 / 0.48	1 of 18 (2.68)
KSSPSVLYESRNKNSVA	DASTREE	QQYHRLPLS	-0.10 / -0.05 / -0.15 / -0.29 / -0.28 / -0.07	0 of 18
KLSQSGGYEQRNKNSVA	EASTRED	QQYHRLPLS	-0.37 / -0.56 / -0.33 / -0.53 / -0.59 / -0.35	1 of 18 (4.20)
KLSQSVLYESRNDNSVA	NASTRMS	QQYHRLPLS	0.14 / 0.26 / 0.19 / 0.14 / 0.20 / 0.66	1 of 18 (2.18)
KYSFSEGYESRNKNSVA	EASCREE	QQYHRLPLS	0.92 / 0.55 / 0.27 / 0.13 / 0.36 / 0.54	1 of 18 (3.55)
KLEQSDLLESRNKQSVA	NASQRER	QQYHRLPLS	0.15 / 0.18 / -0.08 / -0.06 / -0.06 / 0.03	0 of 18
KFSQSVPYEERNLNNVA	NGSTRCS	QQYHRLPLS	0.31 / 0.14 / 0.08 / -0.08 / 0.04 / 0.28	4 of 18 (2.73)
KVSGSQLYQSRNSNAVA	NASTRMS	QQYHRLPLS	-0.07 / -0.30 / -0.16 / -0.36 / -0.29 / -0.28	1 of 18 (2.06)
KVSWLHPYWSRNWNSVA	NASTREQ	QQYHRLPLS	0.40 / 0.20 / 0.33 / 0.24 / 0.58 / 0.53	0 of 18
KLYQSMLYESRNKNSVA	NASLRES	QCYHRLPLS	n.d. / n.d. / 0.74 / 1.55 / n.d. / n.d.	0 of 18
KLHQSWLYLSRNHNSVA	HASQRCS	QQYHRLPLS	1.03 / 0.85 / 0.88 / 1.35 / 0.77 / 1.16	1 of 18 (1.96)
KLMQSTLYESRNANNVA	YASTRES	QQYHRLPLS	1.20 / 0.18 / 0.61 / 0.24 / 0.80 / 0.54	0 of 18
KLEWSQLYWSRNCNSVA	NASTRES	QQYWRLPLS	1.29 / 0.55 / 0.74 / 0.81 / 1.02 / 1.26	0 of 18
KTYVSQLYESRNKNSVA	QASERES	QQYHRLPLS	-0.12 / -0.50 / -0.40 / -0.84 / -0.69 / -0.30	0 of 18
KMSSSWMQEERNKNSVA	QASQREQ	QQYHRLPLS	-0.04 / 0.11 / -0.36 / -0.37 / -0.29 / -0.08	2 of 18 (3.02)
KVEQSNDYESRNVNSVA	NASQRLK	QQYHRLPLS	0.07 / -0.09 / 0.01 / -0.23 / -0.18 / -0.01	0 of 18
KMSQLNLYEQRNFNSVA	NASYRES	QQYHRLPLS	-0.01 / 0.28 / -0.21 / -0.02 / 0.46 / 0.14	0 of 18
KFEQLVGPEQRNKNSVA	NASLRED	QQYHRLPLS	0.27 / 0.37 / 0.19 / 0.17 / 0.38 / 0.48	0 of 18
KFMQSMGYESRNKNSVA	DASTRRS	QQYHRLPLS	0.03 / 0.01 / -0.35 / -0.52 / -0.29 / -0.10	2 of 18 (3.24)
KLSGSVEMLSRNVNNVA	EASTREL	QAYHRLPLS	0.45 / 0.30 / 0.16 / -0.12 / 0.24 / 0.42	1 of 18 (3.03)
KLSGQMLYEERNSNNVA	HASHRES	QQYHRLPLS	-0.08 / -0.17 / -0.23 / -0.08 / -0.26 / 0.01	2 of 18 (2.85)
KLSPSVMGWMRNKNSVA	NASTRRS	QQYHRLPLS	0.89 / 0.75 / 0.84 / 0.81 / 1.04 / 1.26	1 of 18 (2.52)
KYEFSVLELSRNSNSVA	NASTREE	QQYHRLPLS	0.13 / 0.06 / -0.08 / -0.07 / -0.22 / 0.23	0 of 18
KLYQSMLYEQRNKNSVA	NASLRES	QCYHRLPLS	0.96 / 0.81 / 0.90 / 0.68 / 1.05 / 1.10	0 of 18
KLSQSQEYESRNSNAVA	NASQRLQ	QQYHRLPLS	0.07 / 0.06 / -0.22 / -0.21 / -0.41 / -0.18	0 of 18
KSSQLELYESRQKNSVA	NASYRED	QQYHRLPLS	0.13 / 0.01 / 0.05 / 0.07 / 0.00 / 0.16	0 of 18
KLQWSTLYMSRNCNSVA	DASQRES	QQYHRLPLS	0.77 / 0.97 / 0.48 / 0.86 / 0.76 / 0.67	0 of 18
KLSQSVWYLERNKNSVA	NASTRES	QQYHRLPLS	-0.34 / -0.22 / -0.33 / -0.49 / -0.41 / 0.00	1 of 18 (2.48)
HLEQSSPYEQRNKNSVA	NASLRCS	QQYHRLPLS	0.79 / 0.38 / 0.42 / 0.41 / 0.46 / 0.48	0 of 18
KLSQMYEYESRWPNSVA	HASTREL	QQYHRLPLS	0.57 / n.d. / n.d. / -0.45 / n.d. / n.d.	0 of 18
VLSASELYEDRPKNSVA	NASQRES	QQYHRLPLS	-0.06 / -0.12 / -0.26 / -0.62 / -0.34 / 0.06	0 of 18
KLSQSELYESRQANNVA	NASQRES	QQYHRLPLS	0.14 / -0.22 / -0.15 / -0.18 / -0.29 / -0.01	1 of 18 (3.52)
KAQDGELYESRDDNSVA	NASKRLS	QQYHRLPLS	0.44 / 0.58 / 0.53 / 0.15 / 0.50 / 0.51	1 of 18 (2.13)
KVFQSGPYEQRNQNSVA	SASTREN	QQYHRLPLS	0.26 / 0.24 / 0.12 / -0.07 / 0.15 / 0.10	1 of 18 (2.36)
KLQQADLYESRNANSVA	QASQRLS	QCYHRLPLS	-0.01 / 0.05 / -0.03 / -0.12 / -0.16 / 0.22	1 of 18 (1.81)
LLSGSSGYEQRNKNSVA	DASTRES	QAYHRLPLS	1.85 / 2.48 / 1.54 / 2.19 / 1.70 / 1.21	0 of 18
KLSMSWEYESRNSNSVA	NASTRET	QQYHRLPLA	0.41 / 1.34 / 0.80 / 0.87 / 1.65 / 0.81	0 of 18
KLSQSVEYESRDKNSVA	QAQTRLS	QQYHRLPLS	0.19 / 0.20 / 0.48 / 0.47 / 0.16 / 0.10	0 of 18
KIFQSVQYESRNKNSVA	NASDRMS	QQYHRLPLS	-0.13 / 0.05 / -0.27 / -0.13 / -0.33 / -0.05	0 of 18
KHSPSEEYESRDKNSVA	MASTRMS	QQYHRLPLS	0.84 / 0.73 / 0.80 / 0.61 / 0.88 / 1.03	0 of 18
KWQQSWLQSSRNKNSVA	NASERES	QQYHRLPLS	0.35 / 0.29 / 0.25 / -0.01 / 0.18 / 0.29	3 of 18 (3.78)
KLSQSWMRESRNKNSVA	QASTREQ	QQYHRLPLS	0.86 / 0.51 / 0.66 / 0.31 / 0.74 / 0.67	2 of 18 (2.08)
KSQQSVPYEDRNKNSVA	EASTRCS	QDYHRLPLS	0.38 / 0.22 / 0.26 / 0.09 / 0.13 / 0.00	1 of 18 (2.09)
KQQGGQDYESRMDNSVA	DASTRES	QQYHRLPLS	0.27 / 0.51 / 0.12 / 0.69 / 0.40 / 0.72	1 of 18 (2.17)

The last 5 entries again:

CDR-L1	CDR-L2	CDR-L3	log10 Kd, replicates	empty controls
KHSPSEEYESRDKNSVA	MASTRMS	QQYHRLPLS	0.84 / 0.73 / 0.80 / 0.61 / 0.88 / 1.03	0 of 18
KWQQSWLQSSRNKNSVA	NASERES	QQYHRLPLS	0.35 / 0.29 / 0.25 / -0.01 / 0.18 / 0.29	3 of 18 (3.78)
KLSQSWMRESRNKNSVA	QASTREQ	QQYHRLPLS	0.86 / 0.51 / 0.66 / 0.31 / 0.74 / 0.67	2 of 18 (2.08)
KSQQSVPYEDRNKNSVA	EASTRCS	QDYHRLPLS	0.38 / 0.22 / 0.26 / 0.09 / 0.13 / 0.00	1 of 18 (2.09)
KQQGGQDYESRMDNSVA	DASTRES	QQYHRLPLS	0.27 / 0.51 / 0.12 / 0.69 / 0.40 / 0.72	1 of 18 (2.17)